Where two headings read alike, the source gives them in different places. Where no end group is shown, it is not given here.
What was measured:
hKOPr [1] = target: T1, hKOPr (Homo sapiens, UniProt P41145); assay: cell-based; details: HEK293, read-out: β-Arrestin recruitment, efficacy at hKOPr Emax
hKOPr [2] = target: T1, hKOPr; assay: biochemical
hMOPr [3] = target: T2, hMOPr (Homo sapiens, UniProt P35372); assay: Competitive radio binding assay with [3H]-DAMGO on hMOPr-CHO cell membranes
hKOPr [4] = target: T1, hKOPr; assay: biochemical; type: binding
hMOPr [5] = target: T2, hMOPr; assay: biochemical
hDOPr = hDOPr (Homo sapiens, UniProt P41143); assay: Competitive radio binding assay with [3H]-diprenorphine on hDOPr-CHO cell membranes; details: read-out: Ki hDOPr; [3H]-diprenorphine 1 nM, 60 min 25°C; mean ± SEM
[6] = read-out: Ki hMOPr, [3H]-DAMGO 1 nM, 60 min 25°C, mean ± SEM
[7] = read-out: Potency at hKOPr EC50

Sequences of proteins named here, by UniProt entry; tags and fusion partners are left off. A change or cut given only in a name is not applied to a line headed by its entry.
UniProt P41145: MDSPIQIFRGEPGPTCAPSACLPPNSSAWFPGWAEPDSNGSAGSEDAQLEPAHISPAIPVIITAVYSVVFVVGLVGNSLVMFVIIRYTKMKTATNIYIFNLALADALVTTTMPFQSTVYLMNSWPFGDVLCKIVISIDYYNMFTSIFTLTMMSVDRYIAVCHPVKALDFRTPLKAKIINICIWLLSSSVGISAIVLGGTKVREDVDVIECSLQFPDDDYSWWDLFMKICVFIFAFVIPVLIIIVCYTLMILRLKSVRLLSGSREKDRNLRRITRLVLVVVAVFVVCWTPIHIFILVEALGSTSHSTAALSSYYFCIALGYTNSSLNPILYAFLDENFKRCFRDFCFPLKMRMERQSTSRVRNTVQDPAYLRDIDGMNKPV
UniProt P35372, whole entry: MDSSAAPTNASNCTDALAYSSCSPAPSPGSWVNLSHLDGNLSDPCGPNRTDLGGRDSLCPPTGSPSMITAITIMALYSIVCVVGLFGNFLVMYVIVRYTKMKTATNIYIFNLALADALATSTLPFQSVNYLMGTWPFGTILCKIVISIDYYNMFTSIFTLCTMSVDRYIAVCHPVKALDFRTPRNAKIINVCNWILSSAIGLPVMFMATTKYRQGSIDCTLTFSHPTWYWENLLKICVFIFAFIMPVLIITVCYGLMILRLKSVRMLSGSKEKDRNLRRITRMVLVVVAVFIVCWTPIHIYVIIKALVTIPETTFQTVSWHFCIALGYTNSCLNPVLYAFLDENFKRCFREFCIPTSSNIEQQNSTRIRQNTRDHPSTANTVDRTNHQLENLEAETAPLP
UniProt P41143, whole entry: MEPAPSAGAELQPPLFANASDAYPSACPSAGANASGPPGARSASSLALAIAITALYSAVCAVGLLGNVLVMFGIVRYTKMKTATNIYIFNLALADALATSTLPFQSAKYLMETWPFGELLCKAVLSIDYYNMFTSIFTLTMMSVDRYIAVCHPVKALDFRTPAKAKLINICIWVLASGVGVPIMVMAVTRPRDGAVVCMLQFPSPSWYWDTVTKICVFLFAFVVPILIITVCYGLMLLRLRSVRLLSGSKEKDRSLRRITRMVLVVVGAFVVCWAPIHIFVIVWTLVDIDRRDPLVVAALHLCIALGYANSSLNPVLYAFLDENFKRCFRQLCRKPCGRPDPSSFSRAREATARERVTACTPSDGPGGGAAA

For `CC[C@H](C)[C@H](NC(=O)[C@H](CCCNC(=N)N)NC(=O)[C@H](CCCNC(=N)N)NC(=O)[C@H](CC(C)C)NC(=O)[C@H](Cc1ccccc1)NC(=O)CNC(=O)CNC(=O)[C@@H](N)Cc1ccc(O)cc1)C(=O)N[C@@H](CCCNC(=N)N)C(=O)N1CCC[C@H]1C(=O)N[C@@H](CCCCN)C(=O)N[C@@H](CC(C)C)C(=O)N[C@@H](CCCCN)C(=O)N[C@@H](Cc1c[nH]c2ccccc12)C(=O)N[C@@H](CC(=O)O)C(=O)N[C@@H](CC(N)=O)C(=O)N[C@@H](CCC(N)=O)C(=O)O` [DynA_WT, dynorphin A, reference compound], the Emax (hKOPr [1]) was 100% and the Emax (hKOPr [2]; read-out: Efficacy at hKOPr Emax) was 100%.
In the case of `CC(C)C[C@H](NC(=O)[C@H](Cc1ccccc1)NC(=O)CNC(=O)CNC(=O)[C@@H](N)Cc1ccc(O)cc1)C(=O)N[C@@H](CCCNC(=N)N)C(=O)N[C@@H](CCCNC(=N)N)C(=O)N[C@@H](CCC(N)=O)C(=O)N[C@@H](Cc1ccccc1)C(=O)N[C@@H](CCCCN)C(=O)N[C@H](C(=O)N[C@H](C(=O)N[C@H](C(=O)O)[C@@H](C)O)C(C)C)C(C)C` [DynB_WT, dynorphin B], the Ki (hMOPr [3]) is reported as 11.6 ± 2.6 nM, the Ki (hKOPr [4]) is reported as 0.72 nM and the EC50 (hMOPr [5]) is reported as 31.4 ± 10 nM. The “hMOPr % stim, stimulation of [35S]GTPγS binding” value (hMOPr [5]) was 103 ± 0.0% and the EC50 (hKOPr [2]) was 5.1 ± 0.61 nM.
For YGGFLRRAFKVVT [DynB_Q8A], the Ki (hMOPr [3]; [6]) was 21.9 ± 5.9 nM, the “Selectivity DOPr/KOPr” value (hKOPr [4]) was 147 and the “Selectivity MOPr/KOPr” value (hKOPr [4]) was 14. It also gave a Ki (hKOPr [4]; read-out: Ki hKOPr) of 1.56 nM, a Ki (hDOPr) of 230 ± 30.3 nM and an EC50 (hKOPr [2]; [7]) of 3.67 ± 0.52 nM.
In the case of YGGFLRRQFAVVT [DynB_K10 A], the Ki (hMOPr [3]; [6]) is reported as 12.6 ± 3.5 nM, the “Selectivity DOPr/KOPr” value (hKOPr [4]) is reported as 82 and the “Selectivity MOPr/KOPr” value (hKOPr [4]) is reported as 10. It also gave a Ki (hKOPr [4]; read-out: Ki hKOPr) of 1.25 nM, a Ki (hDOPr) of 103 ± 14.2 nM and an EC50 (hKOPr [2]; [7]) of 9.79 ± 0.92 nM.
